Laboratory results as given in article PMC11099041, “Tissue distribution and retention drives efficacy of rapidly clearing VHL-based PROTACs” (Communications Medicine, 2024).

Sequences of proteins named here, by UniProt entry; tags and fusion partners are left off.
UniProt P51531, whole entry: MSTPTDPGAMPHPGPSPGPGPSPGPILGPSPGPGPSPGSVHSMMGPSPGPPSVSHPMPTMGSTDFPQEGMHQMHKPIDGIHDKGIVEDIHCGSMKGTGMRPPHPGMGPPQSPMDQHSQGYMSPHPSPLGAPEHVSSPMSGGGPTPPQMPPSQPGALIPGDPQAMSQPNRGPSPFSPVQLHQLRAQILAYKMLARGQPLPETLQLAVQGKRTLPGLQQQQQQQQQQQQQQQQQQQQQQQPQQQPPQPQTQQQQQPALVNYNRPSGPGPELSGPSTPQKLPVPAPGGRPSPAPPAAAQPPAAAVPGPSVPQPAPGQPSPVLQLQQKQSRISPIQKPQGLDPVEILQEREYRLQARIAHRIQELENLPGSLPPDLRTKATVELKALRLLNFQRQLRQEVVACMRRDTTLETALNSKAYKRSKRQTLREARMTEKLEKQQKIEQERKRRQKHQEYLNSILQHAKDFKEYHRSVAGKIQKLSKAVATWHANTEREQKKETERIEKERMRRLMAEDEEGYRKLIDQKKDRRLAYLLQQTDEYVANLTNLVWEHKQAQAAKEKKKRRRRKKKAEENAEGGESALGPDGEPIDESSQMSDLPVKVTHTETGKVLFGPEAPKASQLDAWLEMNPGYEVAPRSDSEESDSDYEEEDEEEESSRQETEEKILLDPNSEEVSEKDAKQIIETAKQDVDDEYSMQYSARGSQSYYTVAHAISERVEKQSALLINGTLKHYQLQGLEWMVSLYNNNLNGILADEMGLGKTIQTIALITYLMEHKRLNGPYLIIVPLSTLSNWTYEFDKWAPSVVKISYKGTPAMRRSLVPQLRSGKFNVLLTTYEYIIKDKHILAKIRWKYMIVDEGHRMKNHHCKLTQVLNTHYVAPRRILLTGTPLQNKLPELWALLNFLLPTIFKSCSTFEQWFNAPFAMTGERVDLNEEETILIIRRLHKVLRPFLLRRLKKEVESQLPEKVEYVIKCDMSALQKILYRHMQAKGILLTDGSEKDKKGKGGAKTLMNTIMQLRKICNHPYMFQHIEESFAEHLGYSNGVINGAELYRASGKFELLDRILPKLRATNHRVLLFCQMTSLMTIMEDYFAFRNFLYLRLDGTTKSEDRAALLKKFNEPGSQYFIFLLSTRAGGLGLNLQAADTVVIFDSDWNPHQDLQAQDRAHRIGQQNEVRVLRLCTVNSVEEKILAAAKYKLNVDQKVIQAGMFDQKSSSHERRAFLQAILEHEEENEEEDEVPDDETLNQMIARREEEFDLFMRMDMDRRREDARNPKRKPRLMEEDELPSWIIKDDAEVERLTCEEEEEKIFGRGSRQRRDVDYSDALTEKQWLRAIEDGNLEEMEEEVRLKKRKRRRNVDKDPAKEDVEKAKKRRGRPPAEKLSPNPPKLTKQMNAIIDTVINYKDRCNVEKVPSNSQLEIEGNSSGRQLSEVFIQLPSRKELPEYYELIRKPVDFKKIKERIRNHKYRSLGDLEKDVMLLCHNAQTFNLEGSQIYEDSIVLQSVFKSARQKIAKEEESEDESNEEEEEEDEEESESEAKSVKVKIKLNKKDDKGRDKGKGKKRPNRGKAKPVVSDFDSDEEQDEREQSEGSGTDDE
UniProt P05177, whole entry: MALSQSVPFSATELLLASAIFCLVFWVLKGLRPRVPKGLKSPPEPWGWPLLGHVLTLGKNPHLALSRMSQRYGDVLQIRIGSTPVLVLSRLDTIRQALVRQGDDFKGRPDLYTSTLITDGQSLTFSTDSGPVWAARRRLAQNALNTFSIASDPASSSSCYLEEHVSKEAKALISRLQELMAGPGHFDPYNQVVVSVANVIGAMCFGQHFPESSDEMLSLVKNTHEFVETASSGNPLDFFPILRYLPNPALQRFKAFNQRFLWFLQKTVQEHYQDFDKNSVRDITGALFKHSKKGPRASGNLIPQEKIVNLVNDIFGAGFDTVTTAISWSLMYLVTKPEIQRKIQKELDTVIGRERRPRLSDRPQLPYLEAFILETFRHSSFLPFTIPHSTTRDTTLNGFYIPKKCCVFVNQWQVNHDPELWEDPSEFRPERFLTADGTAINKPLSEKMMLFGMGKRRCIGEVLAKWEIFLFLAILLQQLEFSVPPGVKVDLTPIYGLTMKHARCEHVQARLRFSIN

What was measured:
[1] = rat, in vivo
Excerpt: Male Sprague Dawley rats, intact or bile-cannulated, were from Envigo RMS, Inc. The animals were acclimated to study conditions for five days prior to dose administration. During acclimation, animals were individually housed in suspended, stainless steel, wire-mesh cages. During the test period, animals were placed in Nalgene cages designed for the collection of urine, feces, and bile. Certified Rodent Diet #2016C or 2016CM (Envigo RMS, Inc.) were provided ad libitum. Water was provided fresh daily. Environmental controls for the animal room were set to maintain a temperature of 20-26 °C, a relative humidity of 50 ± 20%, and a 12-hour light/12-hour dark cycle. […] Three BDC rats were used for collection of bile, urine, and feces, five intact rats for collection of plasma, blood, urine, feces, and tissues, and eight intact rats for collection of blood and carcasses for QWBA. […] The actual amount administered was determined by weighing the dose syringe before and after dose administration. […] Prior to section collection, standards fortified with ^14C radioactivity were placed into the frozen block containing the carcass and were used for monitoring the uniformity of section thickness. […] Specified tissues, organs, and fluids were analyzed. […] The mean time concentration profile was generated for each group, and an overall AUC was then calculated with these sparse samples of rats and mice. […]

SMARCA2 = molecular target: T1, SMARCA2 (Homo sapiens, UniProt P51531); experiment: SMARCA2 re-synthesis after drug washout in NCI-H1944 cells; format: cell-based
T1 construct: from tissue; host or cells: xenograft tumour (HCC2302) in mice

[2] = In vitro metabolism in human liver microsomes; format: in vitro ADME; details: 5 µM, 1 hr
Description: The supernatant (5 µL) was analyzed by LC-MS as described above. Buffer control incubations were also included.

CYP1A2 = molecular target: T2, CYP1A2 (Homo sapiens, UniProt P05177); experiment: Time-dependent P450 inhibition (TDI) in HLM; format: biochemical; details: 30 min pre-incubation ± NADPH, substrate Phenacetin
T2 construct: phosphate buffer (100 mM, pH 7.4) containing human liver microsomes (HLM); from tissue; host or cells: human liver microsomes
Description: (§1) The time-dependent inhibition (TDI) experiment was performed in triplicate as described in literature. […] Incubation samples were processed and subsequently analyzed by LC-MS/MS as described in the reversible P450 inhibition assay. For each P450 enzyme, two sigmoidal dose-response curves were obtained to calculate %AUC shifts.

CYP3A4/5 = experiment: Time-dependent P450 inhibition (TDI) in HLM; format: biochemical, human; details: 30 min pre-incubation ± NADPH
Description: as §1

[3] = In vitro metabolism in rat hepatocytes; details: 5 µM A947, 3 hr
[4] = In vitro metabolism in human hepatocytes; details: 5 µM A947, 3 hr

Compound | Half-lives in selected tissues [1] | SMARCA2 protein re-synthesis after washout (SMARCA2; NCI-H1944, 48 h and 168 h after 8-hour treatment and washout) | SMARCA2 protein degradation (SMARCA2; NCI-H1944 cells, 10 nM, 8 h) | Estimated relative distribution percent of mass spectral abundance ([2]; human liver microsomes (+NADPH, +UDPGA)) [%] | Estimated relative distribution percent of mass spectral abundance ([2]; human liver microsomes (-NADPH, -UDPGA)) [%] | %AUC Shift (CYP1A2) [%] | %AUC Shift (CYP3A4/5; substrate Midazolam) [%] | %AUC Shift (CYP3A4/5; substrate Testosterone) [%] | Estimated relative distribution percent of mass spectral abundance [3] [%] | Estimated relative distribution percent of mass spectral abundance [4] [%]
Cc1ncsc1-c1ccc(C(C)NC(=O)C2CC(O)CN2C(=O)C(c2cc(N3CCC(CN4CCC(OC5CC(Oc6cc(N7C8CCC7CN(c7cc(-[14c]9[14cH][14cH][14cH][14cH][14c]9O)nnc7N)C8)ccn6)C5)CC4)CC3)no2)C(C)C)cc1 (stereo not shown) [14C-A947] | ~ 80 hours | – | – | – | – | – | – | – | – | –
Cc1ncsc1-c1ccc(C(C)NC(=O)C2CC(O)CN2C(=O)C(c2cc(N3CCC(CN4CCC(OC5CC(Oc6cc(N7C8CCC7CN(c7cc(-c9ccccc9O)nnc7N)C8)ccn6)C5)CC4)CC3)no2)C(C)C)cc1 (stereo not shown) [A947] | – | minimal SMARCA2 protein re-synthesized | ~ 85% | 96.9 | 99.1 | -6.7 | 33 | 38 | 94.4 | 93.8
